The record followed here is ChEMBL document CHEMBL1128165, “Quinuclidine-based NK1 antagonists, the role of the benzhydryl” (Bioorg Med Chem Lett, 1995).

Amino acid sequences for entries named in this document (tags omitted).
UniProt P25103, whole entry H197A: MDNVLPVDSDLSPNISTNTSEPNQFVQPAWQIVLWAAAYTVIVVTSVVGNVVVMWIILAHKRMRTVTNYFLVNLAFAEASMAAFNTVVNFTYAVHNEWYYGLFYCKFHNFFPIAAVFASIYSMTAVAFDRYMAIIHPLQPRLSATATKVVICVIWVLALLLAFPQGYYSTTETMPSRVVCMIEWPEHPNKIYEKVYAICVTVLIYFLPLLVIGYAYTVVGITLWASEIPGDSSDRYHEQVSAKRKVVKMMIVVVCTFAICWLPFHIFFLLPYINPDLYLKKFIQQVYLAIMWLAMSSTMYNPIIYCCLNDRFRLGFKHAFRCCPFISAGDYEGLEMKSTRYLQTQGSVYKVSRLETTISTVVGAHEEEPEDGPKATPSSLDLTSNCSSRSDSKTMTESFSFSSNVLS
UniProt P25103, whole entry: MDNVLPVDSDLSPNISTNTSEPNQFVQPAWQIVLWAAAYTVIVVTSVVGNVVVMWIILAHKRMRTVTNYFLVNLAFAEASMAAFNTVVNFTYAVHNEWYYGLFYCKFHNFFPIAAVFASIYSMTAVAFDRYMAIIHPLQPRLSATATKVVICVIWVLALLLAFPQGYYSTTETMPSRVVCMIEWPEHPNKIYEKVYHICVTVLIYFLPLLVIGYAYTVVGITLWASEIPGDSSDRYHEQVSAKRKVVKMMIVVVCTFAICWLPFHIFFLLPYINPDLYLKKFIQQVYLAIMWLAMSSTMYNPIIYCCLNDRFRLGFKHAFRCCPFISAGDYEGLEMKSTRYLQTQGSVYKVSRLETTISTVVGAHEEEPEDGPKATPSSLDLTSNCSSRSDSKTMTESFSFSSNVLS

The target of experiment [1] is Substance-P receptor (Homo sapiens, UniProt P25103, H197A). Briefly: Binding affinity towards human mutant NK-1 receptor in which His-197 has been replaced by alanine (H197A).
For experiment [2], the target named is Substance-P receptor (Homo sapiens, UniProt P25103). Description: Binding affinity towards wild type human Wild-type tachykinin receptor 1 expressed in Chinese hamster ovary cells. Format: cell-based.

Molecules are shown by their SMILES. pIC50: −log10 of the molar value.

As to `Cc1cc(C)cc(COC2/C(=C/c3ccccc3)N3CCC2CC3)c1` (centres undefined), the pIC50 on Substance-P receptor [1] is 5.12; on Substance-P receptor [2], 5.09.
In the same order, the values of `Cc1cc(C)cc(COC2/C(=C\c3ccccc3)N3CCC2CC3)c1` (centres undefined) are 6.21 and 6.89.

In general, pIC50 refers to −log10 of the IC50, conventionally taken in molar units.
